In US11246958B2, “Haemostatic compositions” (HAEMOSTATIX LIMITED, priority 2015, dated 2022):

Columns and labels:
[1] = biological target: T1, fibrinogen in human plasma (Homo sapiens, UniProt P02675+P02679); assay: Polymerisation of fibrinogen in human plasma by peptide dendrimers; assay type: biochemical; details: 30 μL dendrimer 0.25 mg/ml in 100 μL human plasma, 37° C.
T1 construct: from tissue; host or cells: human plasma
T1 sequence (P02679 27-437 isoform P02679-2 limits assumed): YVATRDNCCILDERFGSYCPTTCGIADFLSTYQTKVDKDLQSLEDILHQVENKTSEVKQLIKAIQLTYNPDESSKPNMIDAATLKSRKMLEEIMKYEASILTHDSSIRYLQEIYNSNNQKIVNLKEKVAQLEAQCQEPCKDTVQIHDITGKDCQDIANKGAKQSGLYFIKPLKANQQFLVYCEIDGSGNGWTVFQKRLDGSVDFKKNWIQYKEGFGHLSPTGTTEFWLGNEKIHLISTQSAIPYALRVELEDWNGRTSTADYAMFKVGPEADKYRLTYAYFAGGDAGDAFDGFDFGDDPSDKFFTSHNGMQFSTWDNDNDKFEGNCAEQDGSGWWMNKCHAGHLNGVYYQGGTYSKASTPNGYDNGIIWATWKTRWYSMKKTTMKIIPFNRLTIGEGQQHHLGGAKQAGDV
T1 sequence (P02675 31-491): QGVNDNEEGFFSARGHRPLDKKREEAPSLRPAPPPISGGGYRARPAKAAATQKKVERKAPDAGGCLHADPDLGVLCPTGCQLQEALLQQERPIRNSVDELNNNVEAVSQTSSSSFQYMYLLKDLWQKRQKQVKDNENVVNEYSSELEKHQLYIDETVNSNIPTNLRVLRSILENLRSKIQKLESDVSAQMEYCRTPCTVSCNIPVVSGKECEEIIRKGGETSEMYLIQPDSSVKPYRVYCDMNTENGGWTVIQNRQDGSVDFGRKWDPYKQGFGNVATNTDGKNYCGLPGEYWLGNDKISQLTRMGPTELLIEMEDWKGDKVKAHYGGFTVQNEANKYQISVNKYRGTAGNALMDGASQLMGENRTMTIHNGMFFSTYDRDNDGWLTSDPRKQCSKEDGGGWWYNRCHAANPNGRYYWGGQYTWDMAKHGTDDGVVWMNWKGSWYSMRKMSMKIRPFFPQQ
T1 sequence (P02671 20-629 partner limits assumed): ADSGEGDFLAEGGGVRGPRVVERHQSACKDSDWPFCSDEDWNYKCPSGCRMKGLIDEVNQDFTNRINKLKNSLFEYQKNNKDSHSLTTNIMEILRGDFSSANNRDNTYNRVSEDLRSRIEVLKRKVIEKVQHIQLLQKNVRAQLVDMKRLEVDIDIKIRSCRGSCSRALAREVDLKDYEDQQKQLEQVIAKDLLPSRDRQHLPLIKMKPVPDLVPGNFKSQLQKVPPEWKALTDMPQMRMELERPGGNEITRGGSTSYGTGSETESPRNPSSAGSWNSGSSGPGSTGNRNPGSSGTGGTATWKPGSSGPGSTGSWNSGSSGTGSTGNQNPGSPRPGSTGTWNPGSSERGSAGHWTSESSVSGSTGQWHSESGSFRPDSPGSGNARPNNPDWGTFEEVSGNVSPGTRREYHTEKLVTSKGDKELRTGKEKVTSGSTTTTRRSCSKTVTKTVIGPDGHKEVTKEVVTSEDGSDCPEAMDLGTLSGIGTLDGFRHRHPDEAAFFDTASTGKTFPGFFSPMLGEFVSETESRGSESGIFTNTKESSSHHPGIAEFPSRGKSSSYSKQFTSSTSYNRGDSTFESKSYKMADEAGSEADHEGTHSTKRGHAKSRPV
Method: 30 μL of each dendrimer (at a concentration of 0.25 mg/ml) was added to 100 μL human plasma at 37° C., and polymerisation of fibrinogen was determined using a Sigma Amelung KC4 Delta coagulation analyzer.

[2] = biological target: T2, purified human fibrinogen (Homo sapiens, UniProt P02675+P02679); assay: Copolymerisation of peptide dendrimers with purified human fibrinogen, clotting time on KC4 Delta coagulation analyser; assay type: biochemical; details: dendrimer below ~0.125 mg/ml, fibrinogen 3 mg/ml
T2 sequence (P02679 27-437 isoform P02679-2 limits assumed): T1 sequence (P02679 27-437 isoform P02679-2 limits assumed)
T2 sequence (P02675 31-491): T1 sequence (P02675 31-491)
T2 sequence (P02671 20-629 partner limits assumed): T1 sequence (P02671 20-629 partner limits assumed)
Method: The ability of Peptide Dendrimer No. 12 to polymerise fibrinogen was assessed. 30 μl of dendrimer in solution, at concentration ranging from 0.005-2 mg/ml, was added to 100 μl purified human fibrinogen at 3 mg/ml (the level of fibrinogen found in the blood). Polymerisation of fibrinogen was analysed using a Sigma Amelung KC4 Delta coagulation analyser.
The ability of Peptide Dendrimer Nos. 4, 5, 10, 11, and 12 to copolymerise with fibrinogen was assessed using the same method described in Example 2. The concentration of each dendrimer was varied from 0.005-0.5 mg/ml.
The ability of the dendrimers to copolymerise with fibrinogen was assessed using the same method described in Example 2, for a concentration of each dendrimer ranging from 0.005-0.5 mg/ml.
Peptide Conjugate No. 1 or 2 (2 mg/ml) was mixed with Peptide Dendrimer No. 3 or 4, and fibrinogen, and the ability of the mixtures to copolymerise with fibrinogen was assessed using the same method described in Example 2, for a concentration of each dendrimer ranging from 0.025-0.5 mg/ml.

Peptide Dendrimer No. 10: three-branch dendrimer, three GPRPG peptides each attached by its carboxy-terminal end to the branched core
ability to polymerise fibrinogen in human plasma [1]: able to polymerise fibrinogen in human plasma | clotting times [2]: faster clotting times than dendrimer no. 4
